Tests used:
Test in all cases: biochemical
KRas G12R = KRas G12R (Homo sapiens, UniProt P01116, G12R); settings: Binding to KRas (IC50 nM) G12R, TR-FRET displacement
KRas G12D = KRas G12D (Homo sapiens, UniProt P01116, G12D); settings: Binding to KRas (IC50 nM) G12D, TR-FRET displacement
KRas G12V = KRas G12V (Homo sapiens, UniProt P01116, G12V); settings: Binding to KRas (IC50 nM) G12V, TR-FRET displacement

Protein sequences, listed by entry. Tags and fused reporters are not part of them. Lines headed by an entry give the natural chain unless they say otherwise; changes in a name come on top.
UniProt P01116: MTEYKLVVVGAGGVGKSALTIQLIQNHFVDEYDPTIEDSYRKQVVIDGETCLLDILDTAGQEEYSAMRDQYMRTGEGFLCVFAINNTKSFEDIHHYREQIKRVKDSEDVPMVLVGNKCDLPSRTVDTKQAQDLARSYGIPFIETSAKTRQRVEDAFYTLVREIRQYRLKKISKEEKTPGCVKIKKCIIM

IC50 (KRas G12R) | IC50 (KRas G12D) | IC50 (KRas G12V) | Structure (SMILES)
< 2 nM | < 2 nM | < 2 nM | CCc1c(F)ccc2cc(O)cc(N3CCc4c(nc(OC[C@@]56CCCN5C[C@H](F)C6)nc4N4CCCn5nc(C(=O)NC)cc5C4)C3)c12 [Example 400, 5-(7-(8-ethyl-7-fluoro-3-hydroxynaphthalen-1-yl)-2-(((2R,7aS)-2-fluorohexahydro-1H-pyrrolizin-7a-yl)methoxy)-5,6,7,8-tetrahydropyrido[3,4-d]pyrimidin-4-yl)-N-methyl-5,6,7,8-tetrahydro-4H-pyrazolo[1,5-a][1,4]diazepine-2-carboxamide]
< 2 nM | < 2 nM | < 2 nM | CCc1c(F)ccc2cc(O)cc(N3CCc4c(nc(OC[C@@]56CCCN5C[C@H](F)C6)nc4N4CCCn5nc(C(=O)N6CCOCC6)c(Cl)c5C4)C3)c12 [Example 413, (3-chloro-5-(7-(8-ethyl-7-fluoro-3-hydroxynaphthalen-1-yl)-2-(((2R,7aS)-2-fluorohexahydro-1H-pyrrolizin-7a-yl)methoxy)-5,6,7,8-tetrahydropyrido[3,4-d]pyrimidin-4-yl)-5,6,7,8-tetrahydro-4H-pyrazolo[1,5-a][1,4]diazepin-2-yl)(morpholino)methanone]
2 nM | 3 nM | < 2 nM | C[C@@H]1C[C@@H]1c1c(Cl)cc2[nH]ncc2c1N1CCc2c(nc(OC[C@@]34CCCN3C[C@H](F)C4)nc2N2CCC[C@]3(C2)NC(=O)NC3=O)C1 [Example 448, (R)-7-(7-(6-chloro-5-((1S,2R)-2-methylcyclopropyl)-1H-indazol-4-yl)-2-(((2R,7aS)-2-fluorohexahydro-1H-pyrrolizin-7a-yl)methoxy)-5,6,7,8-tetrahydropyrido[3,4-d]pyrimidin-4-yl)-1,3,7-triazaspiro[4.5]decane-2,4-dione]
< 2 nM | < 2 nM | < 2 nM | O=S1(=O)CCC2(CCCN(c3nc(OC[C@@]45CCCN4C[C@H](F)C5)nc4c3CCN(c3cc(O)cc5ccc(F)c(Cl)c35)C4)C2)C1 (stereo partly drawn) [Example 465, 7-(7-(8-chloro-7-fluoro-3-hydroxynaphthalen-1-yl)-2-(((2R,7aS)-2-fluorohexahydro-1H-pyrrolizin-7a-yl)methoxy)-5,6,7,8-tetrahydropyrido[3,4-d]pyrimidin-4-yl)-2-thia-7-azaspiro[4.5]decane 2,2-dioxide]
15 nM | 83 nM | 14 nM | O=S1(=O)NCC(CNc2nc(OC[C@@]34CCCN3C[C@H](F)C4)nc3c2CCN(c2cc(O)cc4ccc(F)c(Cl)c24)C3)N1 (stereo partly drawn) [Example 466, 3-(((7-(8-chloro-7-fluoro-3-hydroxynaphthalen-1-yl)-2-(((2R,7aS)-2-fluorohexahydro-1H-pyrrolizin-7a-yl)methoxy)-5,6,7,8-tetrahydropyrido[3,4-d]pyrimidin-4-yl)amino)methyl)-1,2,5-thiadiazolidine 1,1-dioxide]
< 2 nM | < 2 nM | < 2 nM | O=C1NC(=O)[C@]2(CCCN(c3nc(OC[C@@]45CCCN4C[C@H](F)C5)nc4c3CCN(c3c(C5CC5)c(Cl)cc5[nH]ncc35)C4)C2)N1 [Example 470, (R)-7-(7-(6-chloro-5-cyclopropyl-1H-indazol-4-yl)-2-(((2R,7aS)-2-fluorohexahydro-1H-pyrrolizin-7a-yl)methoxy)-5,6,7,8-tetrahydropyrido[3,4-d]pyrimidin-4-yl)-1,3,7-triazaspiro[4.5]decane-2,4-dione]
< 2 nM | 7 nM | 5 nM | O=C1NC(=O)C2(CCCN(c3nc(OC[C@@]45CCCN4C[C@H](F)C5)nc4c3CCN(c3c5ccccc5cc5[nH]ncc35)C4)C2)N1 (stereo partly drawn) [Example 472, 7-(7-(1H-benzo[f]indazol-4-yl)-2-(((2R,7aS)-2-fluorohexahydro-1H-pyrrolizin-7a-yl)methoxy)-5,6,7,8-tetrahydropyrido[3,4-d]pyrimidin-4-yl)-1,3,7-triazaspiro [4.5]decane-2,4-dione]
1400 nM | 2030 nM | 1670 nM | CCc1cccc2cccc(N3CCc4c(nc(OCC56CCCN5CCC6)nc4N4CCCc5[nH]cnc5C4)C3)c12 [Example 477, 5-(7-(8-ethylnaphthalen-1-yl)-2-((hexahydro-1H-pyrrolizin-7a-yl)methoxy)-5,6,7,8-tetrahydropyrido[3,4-d]pyrimidin-4-yl)-1,4,5,6,7,8-hexahydroimidazo[4,5-c]azepine]

Continued, molecule first:

Structure (SMILES) | IC50 (KRas G12R) | IC50 (KRas G12D) | IC50 (KRas G12V)
CCc1c(F)ccc2cc(O)cc(N3CCc4c(nc(N5CC(N(C)C)C5)nc4N4CCCn5nc(C(=O)N(C)C)cc5C4)C3)c12 [Example 432, 5-(2-(3-(dimethylamino)azetidin-1-yl)-7-(8-ethyl-7-fluoro-3-hydroxynaphthalen-1-yl)-5,6,7,8-tetrahydropyrido[3,4-d]pyrimidin-4-yl)-N,N-dimethyl-5,6,7,8-tetrahydro-4H-pyrazolo[1,5-a][1,4]diazepine-2-carboxamide] | 592 nM | 201 nM | 316 nM
CCc1c(F)ccc2cc(O)cc(N3CCc4c(nc(N5CC(N(C)C)C5)nc4N4CCC[C@@](C)(O)C4)C3)c12 [Example 434, (R)-1-(2-(3-(dimethylamino)azetidin-1-yl)-7-(8-ethyl-7-fluoro-3-hydroxynaphthalen-1-yl) -5,6,7,8-tetrahydropyrido [3,4-d]pyrimidin-4-yl)-3-methylpiperidin-3-ol] | 498 nM | 397 nM | 342 nM
CCc1cccc2cccc(N3CCc4c(nc(OCC56CCCN5CCC6)nc4C4=CCOCCC4)C3)c12 [Example 474, 7-(8-ethylnaphthalen-1-yl)-2-((hexahydro-1H-pyrrolizin-7a-yl)methoxy)-4-(2,5,6,7-tetrahydrooxepin-4-yl)-5,6,7,8-tetrahydropyrido[3,4-d]pyrimidine] | 51700 nM | 79500 nM | 48500 nM
CCc1cccc2cccc(N3CCc4c(nc(OCC56CCCN5CCC6)nc4N4CCn5ncc(P(C)(C)=O)c5C4)C3)c12 [Example 475, (5-(7-(8-ethylnaphthalen-1-yl)-2-((tetrahydro-1H-pyrrolizin-7a(5H)-yl)methoxy)-5,6,7,8-tetrahydropyrido[3,4-d]pyrimidin-4-yl)-4,5,6,7-tetrahydropyrazolo[1,5-a]pyrazin-3-yl)dimethylphosphine oxide] | 13200 nM | 6600 nM | 8630 nM
CCc1cccc2cccc(N3CCc4c(nc(OCC56CCCN5CCC6)nc4N4CCn5nc(P(C)(C)=O)cc5C4)C3)c12 [Example 476, (5-(7-(8-ethylnaphthalen-1-yl)-2-((tetrahydro-1H-pyrrolizin-7a(5H)-yl)methoxy)-5,6,7,8-tetrahydropyrido[3,4-d]pyrimidin-4-yl)-4,5,6,7-tetrahydropyrazolo[1,5-a]pyrazin-2-yl)dimethylphosphine oxide] | 8990 nM | 5370 nM | 16900 nM
CCc1cccc2cccc(N3CCc4c(nc(OCC56CCCN5CCC6)nc4C4CCCOCC4)C3)c12 (stereo not drawn) [Example 478, 7-(8-ethylnaphthalen-1-yl)-2-((hexahydro-1H-pyrrolizin-7a-yl)methoxy)-4-(oxepan-4-yl)-5,6,7,8-tetrahydropyrido[3,4-d]pyrimidine] | 13000 nM | 24700 nM | 14500 nM

— US20250368649A1, “TETRAHYDROPYRIDOPYRIMIDINE PAN-KRAS INHIBITORS” (Mirati Therapeutics, Inc., priority 2022, published 2025)
